{"source": "patent US4900748A", "about": "(priority 1988, dated 1990)", "origin": "cited, not measured here", "tested_on": "ChE", "conditions": "Brossi et al. 1986; cited from earlier work"}
{"substance": "(+)-physostigmine", "values": [{"measurement": "ChE inhibitory activity", "value": "negligible ChE inhibitory activity"}]}
